Here are results for 2 compounds from patent US11319322B2, “Substituted aryl ether compound, preparation method thereof, pharmaceutical composition and use thereof” (Xiamen University, priority 2017, dated 2022).

Chains of the proteins cited; added tags and fusions are not shown.
UniProt P07949, whole entry: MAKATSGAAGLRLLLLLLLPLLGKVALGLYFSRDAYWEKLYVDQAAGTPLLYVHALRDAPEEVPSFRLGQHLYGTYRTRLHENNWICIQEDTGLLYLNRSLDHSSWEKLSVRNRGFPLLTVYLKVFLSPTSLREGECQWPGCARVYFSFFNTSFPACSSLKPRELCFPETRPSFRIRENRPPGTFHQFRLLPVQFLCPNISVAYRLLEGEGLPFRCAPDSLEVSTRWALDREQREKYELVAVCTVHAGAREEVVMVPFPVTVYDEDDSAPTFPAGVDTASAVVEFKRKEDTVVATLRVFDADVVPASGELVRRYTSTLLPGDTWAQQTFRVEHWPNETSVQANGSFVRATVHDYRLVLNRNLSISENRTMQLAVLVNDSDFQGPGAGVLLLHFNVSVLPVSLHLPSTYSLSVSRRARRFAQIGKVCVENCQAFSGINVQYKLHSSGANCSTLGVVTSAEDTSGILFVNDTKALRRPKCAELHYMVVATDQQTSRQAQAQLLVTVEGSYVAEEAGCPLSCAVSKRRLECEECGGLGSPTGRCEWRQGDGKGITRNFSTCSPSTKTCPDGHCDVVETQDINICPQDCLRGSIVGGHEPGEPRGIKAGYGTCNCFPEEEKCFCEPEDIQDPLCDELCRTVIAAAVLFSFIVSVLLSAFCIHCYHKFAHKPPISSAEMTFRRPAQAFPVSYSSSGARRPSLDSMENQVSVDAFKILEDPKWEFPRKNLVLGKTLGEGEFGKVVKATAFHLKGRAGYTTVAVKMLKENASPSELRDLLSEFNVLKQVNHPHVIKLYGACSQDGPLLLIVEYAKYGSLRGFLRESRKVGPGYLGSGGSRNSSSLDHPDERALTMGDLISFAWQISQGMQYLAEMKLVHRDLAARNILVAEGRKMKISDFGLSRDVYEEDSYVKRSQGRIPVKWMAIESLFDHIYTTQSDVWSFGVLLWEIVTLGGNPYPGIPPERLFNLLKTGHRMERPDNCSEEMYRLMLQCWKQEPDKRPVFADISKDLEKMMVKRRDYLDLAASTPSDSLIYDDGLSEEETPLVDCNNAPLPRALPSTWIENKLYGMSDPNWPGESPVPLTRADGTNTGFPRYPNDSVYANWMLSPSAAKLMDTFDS

One experiment concerns the target CCDC6-RET-BaF3 (Homo sapiens, UniProt P07949). The experiment is described as follows: Growth inhibition of CCDC6-RET-BaF3 cells stably transfected with kinase (MTS). The settings on record: read-out: CCDC6-RET (IC50/nM), 48 h. How it is done: (§1) Growth inhibitory activity of compounds on cell lines stably transfected with kinase
(§2) The activity of compounds against kinase RET is evaluated by their effect of inhibiting growth of cell lines stably transfected with kinase CCDC6-RET-BaF3, KIF5B-RET-BaF3, and wild-type BaF3 (Proc. Natl. Acad. Sci. USA., 2006, 103, 3153-8.). The growth of the cell lines stably transfected with kinase CCDC6-RET-BaF3, KIF5B-RET-BaF3 depends on their kinase activity. If a compound can inhibit the activity of the kinase RET per se or the activity of the RET signaling pathway, the compound can inhibit the growth of BaF3 cells stably transfected with kinase. […] Therefore, a larger ratio between IC50 of a compound to wild-type BaF3 and IC50 of the compound to the cell lines stably transfected with kinase CCDC6-RET-BaF3, KIF5B-RET-BaF3 indicates better targeting.
(§3) The specific test method is given as follows:
(§4) 1) Medium: DMEM (Dulbecco's modified eagle medium) or RPMI 1640 (containing 10% fetal bovine serum, 100 μg/mL ampicillin, 100 μg/mL streptomycin). […]
(§5) 4) IC50 calculation: The semi-inhibitory concentration of the compound acting on cell growth was calculated using GradPad Prism 5 software according to the measured cell growth inhibition rate.

The target of the next experiment is KIF5B-RET-BaF3 (Homo sapiens, UniProt P07949). The experiment is described as follows: Growth inhibition of KIF5B-RET-BaF3 cells stably transfected with kinase (MTS). The following applies: read-out: KIF5B-RET (IC50/nM), 48 h. How it is done:
as §1, §2, §3, §4, §5

A further experiment deals with wild-type BaF3. The experiment is described as follows: Growth inhibition of wild-type BaF3 cells, broad-spectrum toxicity (MTS). The following applies: read-out: WT Ba/F3 (IC50/nM), 48 h. On the procedure:
as §1, §2, §3, §4, §5

As for `CN1CCN(Cc2ccc(C(=O)Nc3cc(Oc4nc(-c5ccc(N)cc5)nc5ccn(C)c45)ccc3Cl)cc2C(F)(F)F)CC1`, the GI50 on CCDC6-RET-BaF3 came out at 1810 nM; at KIF5B-RET-BaF3, 2660 nM.

On to `CN1CCN(Cc2ccc(NC(=O)c3cc(Oc4nc(-c5ccncc5)nc5ccn(C)c45)ccc3Cl)cc2C(F)(F)F)CC1`, for which the GI50 on KIF5B-RET-BaF3 worked out at 13.3 nM. Also, the IC50 in the experiment on wild-type BaF3 is 1150 nM.
